Values of other authors, collected in patent US20070031570A1, “Hydrothermically processed compositions containing phytosterols” (Archer-Daniels-Midland Company, priority 2002, published 2007).

Conditions: orally-administered, chronic administration

Substance: neomycin
- toxicity: toxic
